Results taken from patent US12473284B2, “Small molecule inhibitors of ULK1” (Memorial Sloan Kettering Cancer Center, priority 2019, dated 2025).
pIC50: −log10 of the molar value.

By UniProt entry, the sequences of proteins in these tests, tags left out.
UniProt O75385, whole entry: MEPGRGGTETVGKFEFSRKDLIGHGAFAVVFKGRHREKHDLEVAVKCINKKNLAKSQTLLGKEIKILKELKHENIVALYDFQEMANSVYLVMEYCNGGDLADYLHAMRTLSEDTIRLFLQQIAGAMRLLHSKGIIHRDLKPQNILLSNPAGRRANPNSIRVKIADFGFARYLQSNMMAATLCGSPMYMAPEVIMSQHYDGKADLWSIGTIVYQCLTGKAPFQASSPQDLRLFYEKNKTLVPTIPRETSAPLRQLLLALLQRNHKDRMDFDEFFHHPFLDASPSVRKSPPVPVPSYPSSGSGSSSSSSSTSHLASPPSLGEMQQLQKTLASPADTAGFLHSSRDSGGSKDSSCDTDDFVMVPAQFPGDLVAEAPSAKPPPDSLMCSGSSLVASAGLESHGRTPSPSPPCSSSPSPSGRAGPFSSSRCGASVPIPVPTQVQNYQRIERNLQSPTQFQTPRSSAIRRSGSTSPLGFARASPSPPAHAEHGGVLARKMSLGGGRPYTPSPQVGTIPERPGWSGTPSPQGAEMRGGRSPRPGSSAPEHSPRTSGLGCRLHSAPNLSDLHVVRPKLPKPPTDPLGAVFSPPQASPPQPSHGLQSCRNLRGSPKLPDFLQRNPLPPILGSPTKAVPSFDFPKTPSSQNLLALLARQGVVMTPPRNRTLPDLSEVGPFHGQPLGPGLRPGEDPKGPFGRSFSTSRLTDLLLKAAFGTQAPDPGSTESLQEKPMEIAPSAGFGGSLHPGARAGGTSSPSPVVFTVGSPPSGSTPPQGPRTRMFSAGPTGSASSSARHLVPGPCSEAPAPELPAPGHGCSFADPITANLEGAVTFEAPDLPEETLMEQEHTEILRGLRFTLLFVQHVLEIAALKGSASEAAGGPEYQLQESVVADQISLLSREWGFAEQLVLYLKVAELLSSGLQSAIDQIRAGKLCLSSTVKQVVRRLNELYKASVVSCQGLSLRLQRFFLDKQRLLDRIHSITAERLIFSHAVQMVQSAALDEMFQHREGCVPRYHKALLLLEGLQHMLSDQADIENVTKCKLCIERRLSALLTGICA
UniProt O75143, whole entry partner: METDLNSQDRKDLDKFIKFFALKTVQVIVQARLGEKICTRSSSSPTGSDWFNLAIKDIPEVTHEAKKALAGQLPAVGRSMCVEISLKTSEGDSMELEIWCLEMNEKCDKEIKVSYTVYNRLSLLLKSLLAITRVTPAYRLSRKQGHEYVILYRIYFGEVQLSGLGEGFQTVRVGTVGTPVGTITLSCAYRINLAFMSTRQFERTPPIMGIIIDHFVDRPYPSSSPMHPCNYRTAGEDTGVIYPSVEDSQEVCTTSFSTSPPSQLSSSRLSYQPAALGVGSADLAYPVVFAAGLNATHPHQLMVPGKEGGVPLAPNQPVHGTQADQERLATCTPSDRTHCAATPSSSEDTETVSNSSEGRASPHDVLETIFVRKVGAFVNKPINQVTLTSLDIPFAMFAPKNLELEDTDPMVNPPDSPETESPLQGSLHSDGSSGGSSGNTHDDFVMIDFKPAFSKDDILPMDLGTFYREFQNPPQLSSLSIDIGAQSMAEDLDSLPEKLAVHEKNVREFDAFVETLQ

Molecular target: ULK1/Atg13 kinase complex (Homo sapiens (Human), UniProt O75385)
Assay: In vitro kinase assay (Kinase-Glo Plus luminescence, MBP 1-20 peptide substrate)
Conditions: recombinant His-tagged ULK1/Atg13, 75 min at room temperature, salt form as in Table 1
Method: In vitro kinase assays were performed as described below:
Recombinant His-tagged ULK1/Atg13 kinase complex was expressed in […] insect cells, and affinity-purified by Ni-NTA beads, aliquoted and stored at −80° C.
Compounds were dissolved in DMSO to make 10 mM stock solution, aliquoted and stored at −80° C.
1× kinase buffer was prepared: 20 mM Tris-HCl, pH7.5, 100 mM NaCl, 5 mM MgCl2, 0.5 mg/ml BSA, 5 mM DTT, 0.1% Tween-20.
For compound screening experiment, 1 μl of the 10 mM compound stock solution was added using P2.5 pipette into 99 μl 1×kinase buffer to make 100 μM working solution.
For compound titration experiment, 100 μM compound solution was further diluted (with 1×kinase buffer containing 1% DMSO) in a series manner.
30 mM MBP (Myelin basic protein) 1-20 peptide (sequence: […]; SEQ ID NO: 1) was prepared in 1× kinase buffer.
500 μM ATP was prepared in 1× kinase buffer.
Pre-incubation reactions were set up as shown in the Table below and pre-incubated for 10 min at room temperature.
4 μl of 500 μM ATP was added to the pre-incubation reaction (thus the final reaction volume is 20 μl) and incubated for 75 min at room temperature.
20 μl Kinase-Glo Plus (Promega) was added to the reaction (warmed to RT), mixed well and incubated at room temperature for 15 min.
20 μl reaction was pipetted into each well of a white 384-well plate.
the 384-well plate was subjected to brief centrifugation, and luminescence was read in a plate reader.
Calculated inhibition (%) was calculated as follows: […]

| Structure (SMILES) | pIC50 (tested form: HCl) | pIC50 |
| --- | --- | --- |
| COc1cccc(-c2cc3c(NC(=O)[C@H]4CC[C@H](C(C)N)CC4)ccnc3[nH]2)c1 (stereo partly shown) | 7.81 | – |
| CC(N)[C@H]1CC[C@H](C(=O)Nc2ccnc3[nH]c(-c4ccc(C(F)(F)F)cc4)cc23)CC1 (stereo partly shown) | 7.39 | – |
| CC(N)[C@H]1CC[C@H](C(=O)Nc2ccnc3[nH]c(-c4ccc(C5CC5)cc4)cc23)CC1 (stereo partly shown) | 7.53 | – |
| CC(N)[C@H]1CC[C@H](C(=O)Nc2ccnc3[nH]c(-c4cccc(C#N)c4)cc23)CC1 (stereo partly shown) | 7.68 | – |
| CC(N)[C@H]1CC[C@H](C(=O)Nc2ccnc3[nH]c(-c4ccc(F)c(F)c4)cc23)CC1 (stereo partly shown) | 7.41 | – |
| CC(N)C1CCC(C(=O)Nc2ccnc3[nH]c(-c4nccs4)cc23)CC1 (single isomer, unassigned) [MSK-A178_Peak 2] | – | 7.05 |
| CC(N)C1CCC(C(=O)Nc2ccnc3[nH]c(-c4nccs4)cc23)CC1 (single isomer, unassigned) [MSK-A178_Peak 1] | – | 6.45 |
| CC(N)[C@H]1CC[C@H](C(=O)Nc2ccnc3[nH]c(-c4ccccc4F)cc23)CC1 (stereo partly shown) | 7.59 | – |
| CC(N)[C@H]1CC[C@H](C(=O)Nc2ccnc3[nH]c(-c4ccoc4)cc23)CC1 (stereo partly shown) | 7.36 | – |
| Cc1ccc(-c2cc3c(NC(=O)[C@H]4CC[C@H](C(C)N)CC4)ccnc3[nH]2)cc1 (stereo partly shown) | 7.92 | – |
